Columns and labels:
Format in all cases: cell-based
[1] = biological target: T1, Signal transducer and activator of transcription 3 (Homo sapiens, UniProt P40763); assay: Inhibition of IL-6 induced STAT3 phosphorylation at Tyr705 residue in human MCF7 cells assessed as phosphorylation intensity level at 4 uM preincubated for 1 hr followed by IL-6 stimulation and measured after 1 hr by Western blot analysis; set-up: scale not given: the % may be the effect or the level left
[2] = biological target: T1, Signal transducer and activator of transcription 3; assay: Inhibition of IL-6 induced STAT3 phosphorylation at Tyr705 residue in human MCF7 cells assessed as phosphorylation intensity level at 2 uM preincubated for 1 hr followed by IL-6 stimulation and measured after 1 hr by Western blot analysis; set-up: scale not given: the % may be the effect or the level left
[3] = biological target: T1, Signal transducer and activator of transcription 3; assay: Inhibition of IL-6 induced STAT3 phosphorylation at Tyr705 residue in human MCF7 cells at 1 uM preincubated for 1 hr followed by IL-6 stimulation and measured after 1 hr by Western blot analysis relative to control
[4] = biological target: T1, Signal transducer and activator of transcription 3; assay: Inhibition of IL-6 induced STAT3 phosphorylation at Tyr705 residue in human MCF7 cells assessed as phosphorylation intensity level at 0.5 uM preincubated for 1 hr followed by IL-6 stimulation and measured after 1 hr by Western blot analysis; set-up: scale not given: the % may be the effect or the level left
[5] = biological target: T1, Signal transducer and activator of transcription 3; assay: Inhibition of IL-6 induced STAT3 phosphorylation at Tyr705 residue in human MCF7 cells assessed as phosphorylation intensity level at 1 uM preincubated for 1 hr followed by IL-6 stimulation and measured after 1 hr by Western blot analysis; set-up: scale not given: the % may be the effect or the level left

By UniProt entry, the sequences of proteins in these tests, tags left out.
UniProt P40763, whole entry: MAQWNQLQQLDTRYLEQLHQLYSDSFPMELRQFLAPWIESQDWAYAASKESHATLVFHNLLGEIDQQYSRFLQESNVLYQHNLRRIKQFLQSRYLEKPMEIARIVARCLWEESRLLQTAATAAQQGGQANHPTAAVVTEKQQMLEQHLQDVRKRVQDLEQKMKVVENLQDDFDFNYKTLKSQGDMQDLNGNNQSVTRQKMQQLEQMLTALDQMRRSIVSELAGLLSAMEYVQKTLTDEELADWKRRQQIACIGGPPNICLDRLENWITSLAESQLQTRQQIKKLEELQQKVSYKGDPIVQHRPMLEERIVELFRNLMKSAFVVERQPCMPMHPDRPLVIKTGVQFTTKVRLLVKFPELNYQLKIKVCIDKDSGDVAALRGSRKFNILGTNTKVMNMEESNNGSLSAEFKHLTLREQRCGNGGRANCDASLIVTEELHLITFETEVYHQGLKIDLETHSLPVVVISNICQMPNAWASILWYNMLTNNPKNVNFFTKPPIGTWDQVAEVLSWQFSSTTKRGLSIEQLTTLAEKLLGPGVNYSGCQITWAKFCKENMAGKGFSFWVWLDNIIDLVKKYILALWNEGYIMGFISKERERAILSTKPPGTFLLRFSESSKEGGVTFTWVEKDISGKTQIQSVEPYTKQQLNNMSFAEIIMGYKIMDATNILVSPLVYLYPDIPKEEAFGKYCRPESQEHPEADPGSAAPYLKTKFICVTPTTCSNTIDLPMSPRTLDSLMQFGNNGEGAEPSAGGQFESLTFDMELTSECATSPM

Compound: CC(=O)c1cc2c(o1)C(=O)c1ccccc1C2=O [NAPABUCASIN]
- Activity [1]: 5%
- Activity [2]: 9%
- inhibition [3]: 100%
- Activity [4]: 52%
- Activity [5]: 13%
